In one test the target is hA2AAR (Homo sapiens, UniProt P29274). As to the kind of experiment: Radioligand binding, membranes of HEK293 cells stably expressing hA2AAR. Conditions: species h; inhibition of binding at 10 μM.
A further test deals with mA2AAR (Mus musculus, UniProt Q60613). As to the kind of experiment: Radioligand binding, membranes of HEK293 cells stably expressing mA2AAR. The note with it: species m; inhibition of binding at 10 μM.

By UniProt entry, the sequences of proteins in these tests, tags left out.
UniProt Q60613, whole entry: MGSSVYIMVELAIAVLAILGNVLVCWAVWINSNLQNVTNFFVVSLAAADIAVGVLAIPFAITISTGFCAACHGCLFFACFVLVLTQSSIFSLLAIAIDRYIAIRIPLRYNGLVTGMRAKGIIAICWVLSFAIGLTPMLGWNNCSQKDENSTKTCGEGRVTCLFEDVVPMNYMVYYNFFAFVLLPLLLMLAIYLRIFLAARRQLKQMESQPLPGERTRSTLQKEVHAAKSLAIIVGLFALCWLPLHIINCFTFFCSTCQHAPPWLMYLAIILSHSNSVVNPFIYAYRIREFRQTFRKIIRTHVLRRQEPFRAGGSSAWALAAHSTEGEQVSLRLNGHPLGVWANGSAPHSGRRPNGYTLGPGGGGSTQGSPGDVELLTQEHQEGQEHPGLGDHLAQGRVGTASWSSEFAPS

`CNC(=O)[C@@]12C[C@@H]1[C@@H](n1cnc3c(NCCc4ccc(S(=O)(=O)O)cc4)nc(C#Cc4ccccc4)nc31)[C@H](O)[C@@H]2O`: the “% inhibition A2A” value at hA2AAR is on record as “(1% ± 1%)”; at mA2AAR, “(0%)”.

The values are drawn from patent US20190343860A1 (Saint Louis University, priority 2016, published 2019).
